Measured affinities in a library of Ab-91 heavy chain variants

The target is the same throughout: PDVDLGDISGINAS, from the HR2 region of SARS-CoV-2 spike.

Parent scFv Ab-91: VL joined to VH by a 15-residue (Gly4Ser)3 linker. Changes lie in the heavy chain CDRs alone.
VL: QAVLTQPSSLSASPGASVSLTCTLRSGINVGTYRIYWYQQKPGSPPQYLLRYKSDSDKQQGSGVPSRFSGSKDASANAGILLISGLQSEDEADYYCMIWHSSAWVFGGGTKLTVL
VH: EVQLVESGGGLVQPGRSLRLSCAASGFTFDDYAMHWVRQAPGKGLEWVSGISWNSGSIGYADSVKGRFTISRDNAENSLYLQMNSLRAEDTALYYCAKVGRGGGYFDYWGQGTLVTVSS

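Library AAYL51 holds single substitutions and randomly drawn double and triple substitutions in the CDRs. The scFvs were displayed on barcoded MATa yeast, the peptide on MATalpha yeast. Binding brings cells together so that they mate, and sequencing counts the barcode pairs among the diploids. The ratio of observed to expected reads was calibrated, replicate by replicate, on BCL2-family standards whose Kd was known from biolayer interferometry. The assay was run in three technical replicates.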

Substitutions are numbered in sequence along the VH above, starting at 1 (not Kabat).
Values are apparent Kd, the geometric mean of the replicates that gave a signal; lower means stronger binding.
Where no diploid with the target was found in any replicate, the entry reads "not detected": below detection, most likely a poor binder, though not proof of it.
As a blank, each scFv also met three strains without target: over library AAYL51, 21% of these pairings were detected, typically at 34 µM and seldom below 1.8 µM. The control count says in how many pairings with the empty strains this scFv gave a signal.
For reference, the parent read 72 nM as the reference entry and 7.5 nM as a member of this library.

changes | apparent Kd | replicates with signal | control signals
I58D R101K G103P | 12 nM | 3/3 | 2/9
T28D H35D V99M | 6.5 µM | 1/3 | 2/9
G26R G50T Y105T | 200 µM | 1/3 | 4/9
S57M G103M | not detected | 0/3 | 0/9
I51K G59C A61L | 310 µM | 3/3 | 2/9
S52Y Y60S A61C | not detected | 0/3 | 0/9
D30A S57P G100Q | 78 µM | 2/3 | 4/9
Y60T V99P G100Q | 15 µM | 2/3 | 0/9
M34H Y60Q A61M | not detected | 0/3 | 0/9
S52G A61Q V64G | 9.7 µM | 1/3 | 0/9
N54D S55W S57T | not detected | 0/3 | 4/9
S52Q S55C G103R | not detected | 0/3 | 1/9
G50L I58A G103E | 440 µM | 1/3 | 2/9
H35P I51D S63P | not detected | 0/3 | 3/9
A33N S63I V64I | not detected | 0/3 | 0/9
Y32H S52Q S57K | 14 µM | 1/3 | 3/9
S52N S57A D62T | 24 µM | 2/3 | 2/9
N54A I58A G100H | 2.8 mM | 1/3 | 3/9
N54V I58M Y105A | 850 µM | 1/3 | 4/9
G26K M34C S52L | 1.0 mM | 2/3 | 4/9
F29S A61N | not detected | 0/3 | 0/9
M34N I58W K65A | 6.2 µM | 1/3 | 4/9
S57N V99S | not detected | 0/3 | 0/9
T28L G100A G102H | not detected | 0/3 | 0/9
G59W G100Q D107V | 580 µM | 3/3 | 7/9
H35S V64E F106D | not detected | 0/3 | 0/9
T28P N54L D62Q | 40 µM | 1/3 | 0/9
G56D G59W A61D | not detected | 0/3 | 3/9
Y60L G102D F106W | 300 nM | 3/3 | 0/9
I51T G104Q D107K | not detected | 0/3 | 0/9
H35Q V64Y D107G | not detected | 0/3 | 0/9
G59Y A61E V99E | not detected | 0/3 | 4/9

Second part, the sequence after the result:

apparent Kd | replicates with signal | control signals | changes
210 µM | 1/3 | 3/9 | D30M H35L G56A
89 µM | 1/3 | 3/9 | H35V I58T G104V
36 µM | 3/3 | 4/9 | T28R D30E
not detected | 0/3 | 0/9 | F29V G102D Y105F
110 µM | 2/3 | 3/9 | G26D S57H
190 µM | 1/3 | 1/9 | G26S F27S S55E
36 µM | 1/3 | 2/9 | G26A S57F G104L
not detected | 0/3 | 1/9 | G26T F27V Y32Q
not detected | 0/3 | 4/9 | H35S A61G V99N
not detected | 0/3 | 0/9 | G26R W53M Y105C
130 µM | 2/3 | 4/9 | Y32E G59H F106S
1.1 µM | 3/3 | 1/9 | I58A A61D
2.9 µM | 1/3 | 2/9 | M34H H35T R101G
not detected | 0/3 | 0/9 | G26L S57N Y105Q
not detected | 0/3 | 1/9 | S63M G100E G103L
120 µM | 3/3 | 2/9 | T28S I58G G104W
63 µM | 1/3 | 5/9 | G26E Y32K G56Q
5.5 µM | 2/3 | 1/9 | M34E V64I G103Y
1.1 µM | 1/3 | 0/9 | W53H S55K I58L
not detected | 0/3 | 0/9 | G56H S63T K65A
78 µM | 3/3 | 5/9 | G56F G59F F106A
3.8 µM | 3/3 | 0/9 | F27L W53C F106W
1.8 µM | 1/3 | 2/9 | F29K S57P V99D
not detected | 0/3 | 3/9 | W53Y G56I Y60R
2.2 µM | 3/3 | 1/9 | Y32V A61G K65E
not detected | 0/3 | 0/9 | F29Q D31T G59T
not detected | 0/3 | 4/9 | F29G G50N Y105V
200 µM | 2/3 | 3/9 | T28K A33M V64W
not detected | 0/3 | 2/9 | S57Y V64L
180 µM | 1/3 | 1/9 | M34V G59Y G102P
not detected | 0/3 | 0/9 | D31T Y32K G102H
29 µM | 1/3 | 0/9 | T28M K65S G103Y

The first 5 entries again:

{"changes": "I58D R101K G103P", "apparent Kd": "12 nM", "replicates with signal": "3/3", "control signals": "2/9"}
{"changes": "T28D H35D V99M", "apparent Kd": "6.5 µM", "replicates with signal": "1/3", "control signals": "2/9"}
{"changes": "G26R G50T Y105T", "apparent Kd": "200 µM", "replicates with signal": "1/3", "control signals": "4/9"}
{"changes": "S57M G103M", "apparent Kd": "not detected", "replicates with signal": "0/3", "control signals": "0/9"}
{"changes": "I51K G59C A61L", "apparent Kd": "310 µM", "replicates with signal": "3/3", "control signals": "2/9"}

From the AlphaSeq antibody data of Engelhart et al. 2022 (doi:10.1038/s41597-022-01779-4), copy in the FLAb collection.